Literature values as cited in patent publication US7582602B2, “Hirulog-like peptide and gene therapy” (priority 2000, dated 2009).

Conditions: human; cited from earlier work

CC[C@H](C)[C@H](NC(=O)[C@H](CCC(=O)O)NC(=O)[C@H](CCC(=O)O)NC(=O)[C@H](Cc1ccccc1)NC(=O)[C@H](CC(=O)O)NC(=O)CNC(=O)[C@H](CC(N)=O)NC(=O)CNC(=O)CNC(=O)CNC(=O)CNC(=O)[C@@H]1CCCN1C(=O)[C@H](CCCNC(=N)N)NC(=O)[C@@H]1CCCN1C(=O)[C@H](N)Cc1ccccc1)C(=O)N1CCC[C@H]1C(=O)N[C@@H](CCC(=O)O)C(=O)N[C@@H](CCC(=O)O)C(=O)N[C@@H](Cc1ccc(O)cc1)C(=O)N[C@@H](CC(C)C)C(=O)O [Hirulog-1, reference compound]
plasma half-life: 15 to 20 min
